Test results as given in US9012461B2, “FAK inhibitors” (priority 2011, dated 2015).

Sequences of proteins named here, by UniProt entry; tags and fusion partners are left off.
UniProt Q05397, whole entry: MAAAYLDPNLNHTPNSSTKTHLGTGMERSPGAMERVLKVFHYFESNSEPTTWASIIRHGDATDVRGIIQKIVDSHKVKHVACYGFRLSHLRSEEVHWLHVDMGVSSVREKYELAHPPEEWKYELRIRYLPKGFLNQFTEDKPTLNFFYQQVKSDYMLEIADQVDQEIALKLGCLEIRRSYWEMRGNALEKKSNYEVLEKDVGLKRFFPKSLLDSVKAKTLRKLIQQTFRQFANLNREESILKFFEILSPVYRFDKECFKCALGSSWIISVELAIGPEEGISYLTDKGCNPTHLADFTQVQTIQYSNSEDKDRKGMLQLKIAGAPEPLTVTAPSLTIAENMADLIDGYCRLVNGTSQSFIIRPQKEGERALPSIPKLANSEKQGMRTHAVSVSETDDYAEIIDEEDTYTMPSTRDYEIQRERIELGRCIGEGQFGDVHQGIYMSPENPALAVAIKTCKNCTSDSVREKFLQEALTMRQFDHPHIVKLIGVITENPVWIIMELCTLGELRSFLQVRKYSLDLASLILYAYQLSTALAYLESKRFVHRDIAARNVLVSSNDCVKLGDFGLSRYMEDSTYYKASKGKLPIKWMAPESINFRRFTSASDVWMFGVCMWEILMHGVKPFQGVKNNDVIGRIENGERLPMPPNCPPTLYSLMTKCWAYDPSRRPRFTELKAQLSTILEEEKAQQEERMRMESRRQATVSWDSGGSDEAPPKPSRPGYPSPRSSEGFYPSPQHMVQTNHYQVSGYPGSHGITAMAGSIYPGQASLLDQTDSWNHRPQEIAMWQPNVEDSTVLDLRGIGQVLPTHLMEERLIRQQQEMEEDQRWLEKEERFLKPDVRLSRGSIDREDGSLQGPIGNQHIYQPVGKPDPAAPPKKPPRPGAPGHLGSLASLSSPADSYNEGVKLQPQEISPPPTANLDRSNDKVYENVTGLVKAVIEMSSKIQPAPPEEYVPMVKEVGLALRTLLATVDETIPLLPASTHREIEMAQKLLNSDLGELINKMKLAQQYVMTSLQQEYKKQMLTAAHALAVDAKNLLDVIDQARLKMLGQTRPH

Molecular target: phosphorylation of Y397-FAK in MDA-231-LNA cells (Homo sapiens (Human), UniProt Q05397)
Settings: not given

Row | % response of control at 2 μm [%] | Compound
1 | 114 | NC(=O)Cc1ccccc1CCc1nc(Nc2ccc(N3CCNCC3)cc2)ncc1C(F)(F)F [Compound 1, 2-(2-(2-(2-((4-(piperazin-1-yl)phenyl)amino)-5-(trifluoromethyl)pyrimidin-4-yl)ethyl)phenyl)acetamide]
2 | 105 | NC(=O)Cc1ccccc1CCc1nc(Nc2ccc(C3CCCCN3)cc2)ncc1C(F)(F)F (stereo not shown) [Compound 8, 2-(2-(2-(2-((4-(Piperidin-2-yl)phenyl)amino)-5-(trifluoromethyl)pyrimidin-4-yl)ethyl)phenyl)acetamide]
3 | 106 | CC(C(N)=O)c1ccccc1CCc1nc(Nc2ccc(C3CCNCC3)cc2)ncc1C(F)(F)F (stereo not shown) [Compound 12, 2-(2-(2-(2-((4-(piperidin-4-yl)phenyl)amino)-5-(trifluoromethyl)pyrimidin-4-yl)ethyl)phenyl)propanamide]

Same assay, conditions: MDA-231-LNA cells

Row | Compound | % response of control at 2 μm [%]
4 | CN1CCN(c2ccc(Nc3ncc(C(F)(F)F)c(CCc4cccc(C(N)=O)c4)n3)cc2)CC1 [Compound 2, 3-(2-(2-((4-(4-Methylpiperazin-1-yl)phenyl)amino)-5-(trifluoromethyl)pyrimidin-4-yl)ethyl)benzamide] | 96
5 | CN1CCN(c2ccc(Nc3ncc(C(F)(F)F)c(CCc4ccccc4CC(N)=O)n3)cc2)CC1 [Compound 3, 2-(2-(2-(2-((4-(4-Methylpiperazin-1-yl)phenyl)amino)-5-(trifluoromethyl)pyrimidin-4-yl)ethyl)phenyl)acetamide] | 99
6 | NC(=O)Cc1ccccc1CCc1nc(Nc2ccc(C3CCCNC3)cc2)ncc1C(F)(F)F (stereo not shown) [Compound 4, 2-(2-(2-(2-((4-(Piperidin-3-yl)phenyl)amino)-5-(trifluoromethyl)pyrimidin-4-yl)ethyl)phenyl)acetamide] | 105
7 | CN1CCN(c2cccc(Nc3ncc(C(F)(F)F)c(CCc4cccc(C(N)=O)c4)n3)c2)CC1 [Compound 6, 3-(2-(2-((3-(4-Methylpiperazin-1-yl)phenyl)amino)-5-(trifluoromethyl)pyrimidin-4-yl)ethyl)benzamide] | 108
8 | CN1CCCCC1c1ccc(Nc2ncc(C(F)(F)F)c(CCc3ccccc3CC(N)=O)n2)cc1 (stereo not shown) [Compound 9, 2-(2-(2-(2-((4-(1-methylpiperidin-2-yl)phenyl)amino)-5-(trifluoromethyl)pyrimidin-4-yl)ethyl)phenyl)acetamide] | 105

The next lines start with the values.

Row | % response of control at 2 μm [%] | Compound
9 | 111 | CN1CCC(c2ccc(Nc3ncc(C(F)(F)F)c(CCc4ccccc4CC(N)=O)n3)cc2)CC1 [Compound 16, 2-(2-(2-(2-((4-(1-methylpiperidin-4-yl)phenyl)amino)-5-(trifluoromethyl)pyrimidin-4-yl)ethyl)phenyl)acetamide]
10 | 111 | NC(=O)Cc1ccccc1CCc1nc(Nc2ccc(N3CCC(N)CC3)cc2)ncc1C(F)(F)F [Compound 20, 2-(2-(2-(2-((4-(4-Aminopiperidin-1-yl)phenyl)amino)-5-(trifluoromethyl)pyrimidin-4-yl)ethyl)phenyl)acetamide]
11 | 87 | NC(=O)Cc1ccccc1CCc1nc(Nc2ccc3c(c2)CCNC3)ncc1C(F)(F)F [Compound 21, 2-(2-(2-(2-((1,2,3,4-Tetrahydroisoquinolin-6-yl)amino)-5-(trifluoromethyl)pyrimidin-4-yl)ethyl)phenyl)acetamide]
12 | 91 | NC(=O)Cc1ccccc1CCc1nc(Nc2ccc(C3CNCCO3)cc2)ncc1C(F)(F)F (stereo not shown) [Compound 22, 2-(2-(2-(2-((4-(Morpholin-2-yl)phenyl)amino)-5-(trifluoromethyl)pyrimidin-4-yl)ethyl)phenyl)acetamide]
13 | 139 | CCN1CCC(c2ccc(Nc3ncc(C(F)(F)F)c(CCc4ccccc4CC(N)=O)n3)cc2)CC1 [Compound 31, 2-(2-(2-(2-((4-(1-Ethylpiperidin-4-yl)phenyl)amino)-5-(trifluoromethyl)pyrimidin-4-yl)ethyl)phenyl)acetamide]
